Values of other authors, collected in article PMC8645912 (ESMO Open, 2021).

Test system: metastatic renal cell carcinoma
Conditions: mRCC; cited from earlier work

CNC(=O)c1ccccc1Sc1ccc2c(/C=C/c3ccccn3)n[nH]c2c1 [Axitinib]
Css,trough associated with ≥G2 hypothyroidism: > 6.6 ng/mL

Cc1ccc(Nc2nccc(N(C)c3ccc4c(C)n(C)nc4c3)n2)cc1S(N)(=O)=O [Pazopanib]
Css,trough associated with higher rate of hypertension: • ≥15 μg/ml associated with higher rate of hypertension

CCN(CC)CCNC(=O)c1c(C)[nH]c(/C=C2\C(=O)Nc3ccc(F)cc32)c1C [Sunitinib]
Css,trough associated with higher toxicity rate: • ≥100 ng/ml higher toxicity rate
